## Yeast mating assay B: variants of the scFv Ab-14

The target is the same throughout: PDVDLGDISGINAS, from the HR2 region of SARS-CoV-2 spike.

Parent: Ab-14, a human scFv built as VH, three GGGGS repeats, VL. Only the CDRs of the light chain vary.
VH: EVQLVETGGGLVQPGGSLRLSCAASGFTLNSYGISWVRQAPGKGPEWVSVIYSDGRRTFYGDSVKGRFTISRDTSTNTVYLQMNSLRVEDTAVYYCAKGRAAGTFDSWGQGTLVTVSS
VL: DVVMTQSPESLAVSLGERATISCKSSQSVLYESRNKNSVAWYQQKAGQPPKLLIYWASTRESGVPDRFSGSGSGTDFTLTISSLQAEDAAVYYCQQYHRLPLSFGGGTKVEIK

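The starting antibody came from a phage panning campaign against this peptide. These sequences belong to a second round, designed from the earlier measurements on random variants of the parent. Group labels follow the data file (Ctrl: baseline library sampled from a position-specific scoring matrix, with some repeated check sequences; En: ensemble of fine-tuned language models; GP: Gaussian process model; GPLM: also part of the Gaussian process libraries; HC: hill climbing; Gen: genetic algorithm; Gibbs: Gibbs sampling; a sequence that several methods proposed may carry one label only). AlphaSeq pools MATa yeast showing the antibodies with MATalpha yeast showing the peptide. The frequency of each diploid, read from paired DNA barcodes, reflects how well the two displayed proteins bind. Each replicate has its own calibration line, from reference interactions of the BCL2 family. Each pool was mated in six replicate cultures.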

The parent's light chain CDRs are KSSQSVLYESRNKNSVA, WASTRES, QQYHRLPLS; each variant's own CDRs replace them letter for letter. Kd is apparent (estimated from mating counts) and averaged on the log scale over replicates with a signal. Smaller is tighter. A pair that was not seen in any replicate is written "nd"; this usually means weak binding, but a binder can also be missed.

Kd (apparent)	detected	CDR-L1	CDR-L2	CDR-L3	group
2.8 nM	6/6	KSSQSVLEESVNKNSVA	SASTRES	QQYHRLPLS	Ctrl
430 pM	6/6	KLSQSELYESRNPNSVA	NASTRES	QQYHRLPLS	GP_Gen
740 pM	6/6	KFEQSNLYESRNKNSVA	NASTRES	QQYHRLPLS	GP_Gen
84 nM	6/6	HSSQSVLYESRNKNSVA	WASTREA	QQYHRLPLS	Ctrl
26 nM	6/6	MIAQMLGWESNKINSVA	QANLRCE	QQYDRLPLE	En_Gen
14 nM	6/6	KSSQSDGYESRNKNSVA	GASTRES	QQYHRLPLS	GP_HC
1.7 nM	6/6	KSSISVEYESMNKNSVA	EASTRES	QQYHRLPLS	GP_HC
800 pM	6/6	KFSDSVLLESRMKNSVA	NASTRES	QQYHRLPLS	GP_HC
nd	0/6	SLSEMEAGRDAANKSIA	AKQLMME	QQYHRLPLA	En_Gibbs
33 nM	6/6	AISFEMMSPHNHSNNVA	SESKRCS	QQYFTLPLS	En_Gibbs
1.0 nM	6/6	KSSISFLYESRNKNSVA	EASTREE	QQYHRLPLS	GP_HC
570 pM	6/6	KVEQSMLYESRNKNSVA	NASTRES	QQYHRLPLS	GP_Gen
nd	0/6	KSSQSGLYESCNKNSVA	WASTRES	QQYHRLPLS	Ctrl
16 nM	6/6	FLAYALDQDGLIKNNIA	QTNLLEN	QQYERLPLA	En_Gibbs
59 nM	5/6	NIVGRVNDKGTTTANIA	DAELRAG	QQYSRLPLS	En_Gibbs
340 pM	6/6	KFSQSHLYESRNKNSVA	EASTRES	QQYHRLPLS	GP_Gen
820 pM	6/6	KLSQSWLYESRNKNSVA	EGSTRES	QQYHRLPLS	GP_HC
3.4 nM	6/6	KLSQSWLYEQRNPNSVA	NASKRLL	QQYHRLPLS	GP_Gibbs
nd	0/6	KSSQSVTYESRNKNSVA	WASTRES	QQYHRLKLS	Ctrl
2.4 nM	6/6	KIGMTLNQLLEKKNNVA	DLVHREN	QQYHRLPLS	En_Gen
86 nM	6/6	KLRQVTGYETYNKNSVA	QTSTRAS	QDYHRLPLS	En_HC
130 nM	1/6	KLNISYLFESLEKNSIA	ENSTREK	QHYHRLPLS	En_HC
280 nM	5/6	KSSQSVLYESRNKNSVA	GASHRFS	QQYHRLPLD	Ctrl
5.8 µM	1/6	KSSQSVHYESRNKDSVA	WASTRES	QQYHRLPCS	Ctrl
2.6 nM	6/6	KSSQSVLYDSRNKNSVA	SASTREF	QQYHRLPLS	Ctrl
150 nM	4/6	KSTQSVLYESRNKNSVA	WASTREA	QQYHRLPLS	Ctrl
4.1 nM	6/6	KLQMRMLYESRNKNSVA	NASLRES	QQYHRLPLS	GP_Gibbs
12 nM	6/6	HSSPSTLYESRNKNSVA	NASYRES	QQYHRLPLS	GP_HC
1.9 nM	6/6	KVSQSDLYEQRMKQSVA	NASERES	QQYHRLPLS	GP_Gibbs
270 nM	2/6	IVSQLMLWGMHATNSIA	EASTRLN	QQYERLPLF	En_Gen
3.9 nM	6/6	KLSQVTHSEHINKNSIA	EMVTREK	QQYDRLPLS	En_HC
40 nM	5/6	IISGVMSVESKHKNSVA	NAETREY	QHYDRLPLS	En_HC
400 pM	6/6	KLSQSVLYESRNKNSVA	EASTRES	QQYHRLPLW	GP_Gen
1.3 nM	6/6	HLGLATMLEAQVRNSVA	NNSTRES	QQYDRLPLS	En_Gen
2.4 nM	6/6	KLWQDMYNGRNQANAVA	EGNILAN	QQYARLPFL	En_Gibbs
79 nM	1/6	KLSISYLFESQEKNSIA	ENSTRER	QHYHRLPLS	En_HC
280 nM	1/6	KSTQSVLTESRNHSSVA	WASTREY	QQYHDLGLS	Ctrl
570 pM	6/6	KLSQSWDYESRNKNSVA	NASTRMS	QQYHRLPLS	GP_Gen
1.5 nM	6/6	KLECSQEYWSRNTNSVA	GASTRES	QQYHRLPLS	GP_Gibbs
nd	0/6	IVSQLMLWGMKARNSIA	EAVTRLN	QQYDRLPLF	En_Gen
6.5 nM	6/6	KSPQSHPYGSRNKNSVA	NASERES	QQYHRLPLS	GP_Gibbs
960 pM	6/6	IFSQSVLYESRTKNSVA	NASTRES	QQYHRLPLS	GPLM_HC
54 nM	6/6	KSSQSVLVESRNKNSVA	WASTRES	QQYHRLPLS	Ctrl
630 pM	6/6	KLSQSVMYESRNKNSVA	NASTRED	QQYHRLPLS	GP_Gen
5.2 nM	6/6	KLTMMFQHTSRNKNNIA	ERSTREE	QQYHHLPLS	En_HC
170 nM	1/6	KHSQSVPNESRNKNSVA	WASTRES	QAYHRLPLS	Ctrl
2.1 nM	6/6	GHDHTMDSGKQAPNSIA	NAEQKTI	QQYQRLPLS	En_Gibbs
92 nM	6/6	KLYQSMGYLSRMKNSIA	DMSRREN	QQYHRLPLS	En_HC
5.0 nM	6/6	IISQSMLYESATHNSIA	QTSTREK	QQYHHLPLS	En_HC
nd	0/6	KHSQSVLAESRNKNSVA	WASTRES	QQYHRLHLS	Ctrl
3.0 nM	6/6	KLDQDDLYENRNCNSVA	QASTRES	QQYHRLPLS	GP_Gibbs
880 pM	6/6	KLEQSMLYESRNKNSVA	NASTRMS	QQYHRLPLS	GP_Gen
1.6 nM	6/6	KSGQSVLYESRNVNSVA	NASTRES	QQYHRLPLS	Ctrl
5.9 nM	6/6	KVYQGINTHLGAHSSIA	QEETRLE	QQYAHLPLS	En_Gen
7.4 nM	6/6	MFSQLTYTGSRARNAVA	QAETREN	QQYHHLPLI	En_HC
640 pM	6/6	KLEQGVLYESRNKNSVA	NASTRES	QQYHRLPLS	GP_HC

The closing 3 entries, repeated:

CDR-L1	CDR-L2	CDR-L3	group	Kd (apparent)	detected
KVYQGINTHLGAHSSIA	QEETRLE	QQYAHLPLS	En_Gen	5.9 nM	6/6
MFSQLTYTGSRARNAVA	QAETREN	QQYHHLPLI	En_HC	7.4 nM	6/6
KLEQGVLYESRNKNSVA	NASTRES	QQYHRLPLS	GP_HC	640 pM	6/6

In the paper, a design with two or fewer of six values counts as a poor binder. Background: pairings of all light chain designs with three empty control strains gave a value in 4% of cases (median 430 nM, 5th percentile 38 nM). Values in that range, when seen in few replicates, are hard to tell from nonspecific mating. The parent sequence was in this pool as ten entries: three were never detected, three once, and four in most replicates, with averages from 2.2 nM to 240 nM. The range of this assay differs from that of the first round, and the authors advise against merging the two.

Data: MIT Lincoln Laboratory AlphaSeq set, Li et al. 2023, doi:10.1038/s41467-023-39022-2, as distributed in FLAb.